In US7247315B2:
Some compounds may have been tested in ways that are not shown here.

Assay: In vitro fentanyl permeation (flux) through human cadaver skin, flow-through permeation cell at 32° C.
Details: 32 deg. C.

Compound: CCC(=O)N(c1ccccc1)C1CCN(CCc2ccccc2)CC1
- fentanyl flux rate (same type of patch system with less than a fentanyl flux rate lowering effective amount of plasticizer (FIG. 5, curve 530)): about 5 μg/cm^2hr
- fentanyl flux rate (same type of patch system with more than a fentanyl flux rate lowering effective amount of plasticizer (FIG. 4, 440)): about 16 μg/cm^2hr
- fentanyl flux rate (transdermal delivery patch with a fentanyl flux rate lowering effective plasticizer loading (FIG. 5, curve 540)): about 3 μg/cm^2hr
